{"source": "ChEMBL document CHEMBL2396652", "about": "(Bioorg Med Chem Lett, 2013)", "key": {"[1]": {"species_on_record": "Homo sapiens", "experiment": "Selectivity ratio of Ki for delta opioid receptor (unknown origin) to Ki for kappa opioid receptor (unknown origin)"}, "[2]": {"species_on_record": "Homo sapiens", "experiment": "Selectivity ratio of Ki for mu opioid receptor (unknown origin) to Ki for kappa opioid receptor (unknown origin)"}}}
{"smiles": "N=C(N)Nc1ccc2[nH]c3c(c2c1)C[C@@]1(O)[C@H]2Cc4ccc(O)c5c4[C@@]1(CCN2CC1CC1)[C@H]3O5", "values": [{"measurement": "Ratio Ki", "setting": "[1]", "result": 250}, {"measurement": "Ratio Ki", "setting": "[2]", "result": 120}]}
